Test results published in article PMC4065102, “In Vivo Near-Infrared Fluorescence Imaging of Apoptosis Using Histone H1-Targeting Peptide Probe after Anti-Cancer Treatment with Cisplatin and Cetuximab for Early Decision on Tumor Response” (PLoS ONE, 2014).

Tested on: SNU-16 stomach tumor xenografts
Test: Anti-tumor treatment of mice and tumor size/weight measurement
Type: in vivo
Settings: 3 weeks after treatment; cisplatin 5 mg/kg i.p. once per week x2, cetuximab 1.5 mg/kg i.p. twice per week x4; p<0.05, p<0.05, p<0.001 (linear ApoPep-1 group); p<0.05, p<0.01, p<0.001 (cyclic group)
Procedure: Eight-week old female athymic (nu/nu) Balb/c mice were purchased from Orient laboratories (Seongnam, Korea) and were housed under specific-pathogen-free conditions with laboratory chow and water ad libitum. Stomach tumor xenografts were established by subcutaneously injecting 1 x 10^7 SNU-16 cells in 100 µl saline into the right flank. Tumors were allowed to reach 50–60 mm^3 of volume before randomization and initiation of treatment. Treatment of tumor-bearing mice with cisplatin and cetuximab was conducted according to a previously described protocol. […] Changes in tumor size were measured over three weeks. Diameters of tumor were measured with automatic caliper. Tumor volumes were calculated using the formula: volume = (length x width x height)/2, where length, width, and height means the longest dimension, shorter dimension parallel to the mouse body, and diameter of tumor perpendicular to the length and width, respectively. Tumor weights were measured after isolation of tumor mass.
At 3 weeks after treatment (endpoint of experiments), tumor volumes were measured and tumors were isolated for the weight measurement. The correlation between NIR fluorescence intensity and tumor volume was evaluated by the linear regression analysis using the Graphpad software. […]

cetuximab: anti-epidermal growth factor receptor antibody
tumor volumes compared to untreated control: reduced tumor volumes
